In PubChem BioAssay (EPA / NIEHS):
“And” between values parts separate entries of the source, which are not always exact repeats. Equal entries are not always repeated. Only a part is listed here, and it is no random draw. Results filed as inconclusive are left out. The source made the active and inactive calls. Rule for the calls, unless noted: active = hit-call score of the fitted dose curve at least 0.9, where 1 is the maximum; inactive = score below 0.9.

Sequences of proteins named here, by UniProt entry; tags and fusion partners are left off. A change or cut given only in a name is not applied to a line headed by its entry.
UniProt P10275: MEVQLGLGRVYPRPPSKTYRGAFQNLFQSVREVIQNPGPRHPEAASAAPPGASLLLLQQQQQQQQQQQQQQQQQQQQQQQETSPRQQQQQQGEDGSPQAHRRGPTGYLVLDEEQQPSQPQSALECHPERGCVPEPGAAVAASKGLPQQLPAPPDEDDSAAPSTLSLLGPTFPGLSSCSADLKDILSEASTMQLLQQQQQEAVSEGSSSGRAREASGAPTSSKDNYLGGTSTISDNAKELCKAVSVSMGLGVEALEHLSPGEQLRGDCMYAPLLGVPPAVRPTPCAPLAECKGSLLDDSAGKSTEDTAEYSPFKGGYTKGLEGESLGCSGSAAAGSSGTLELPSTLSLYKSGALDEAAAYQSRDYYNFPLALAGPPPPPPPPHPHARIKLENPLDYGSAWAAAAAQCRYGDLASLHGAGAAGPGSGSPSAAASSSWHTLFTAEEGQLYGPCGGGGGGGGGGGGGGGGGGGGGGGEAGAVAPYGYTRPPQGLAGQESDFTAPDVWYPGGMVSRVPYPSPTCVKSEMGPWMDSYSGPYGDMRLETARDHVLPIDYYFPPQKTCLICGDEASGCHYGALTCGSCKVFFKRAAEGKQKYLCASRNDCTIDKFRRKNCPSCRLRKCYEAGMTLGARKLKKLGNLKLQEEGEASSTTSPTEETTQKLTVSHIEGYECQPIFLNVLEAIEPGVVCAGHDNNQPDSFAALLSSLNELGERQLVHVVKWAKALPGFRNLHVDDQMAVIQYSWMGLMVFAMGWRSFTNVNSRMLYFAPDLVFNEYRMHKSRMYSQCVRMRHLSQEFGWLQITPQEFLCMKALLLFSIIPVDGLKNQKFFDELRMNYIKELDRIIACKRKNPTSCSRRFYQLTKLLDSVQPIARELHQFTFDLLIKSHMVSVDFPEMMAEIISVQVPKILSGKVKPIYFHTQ

Tests used:
[1] = test system: Sodium/Iodide Symporter (NIS), SLC5A5 (gene 6528); test: CPHEA_Stoker_NIS_Inhibition_RAIU: CPHEA's Radioactive Iodide Uptake (RAIU) Assay for Sodium/Iodide Symporter (NIS) Inhibition, Stoker and Laws Labs (AID 2283841; active = hit-call score of the fitted dose curve at least 0.9, where 1 is the maximum)
How it was run: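 Iodide uptake through human NIS is measured in an engineered HEK293T line. Cells take up 125I (329pM final) for 2 hours at room temperature alongside chemicals at 0.001–100uM. Retained radioactivity is counted, and the signal is expressed against DMSO controls.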

[2] = CPHEA_Stoker_NIS_Cytotoxicity: Cytotoxicity Assessment for CPHEA's Radioactive Iodide Uptake (RAIU) Assay for Sodium/Iodide Symporter (NIS) Inhibition, Stoker and Laws Labs (AID 2283897; active = hit-call score of the fitted dose curve at least 0.9, where 1 is the maximum)
How it was run: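 ATP luminescence (Cell Titer Glo) measured viability, with loss of signal normalized to DMSO controls. Cells: hNIS-HEK293T-EPA, seeded 40 hours prior. Dosing: 0.001–100uM, 2 hours, room temperature, uptake buffer pH 7.4.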

[3] = target: Nucleoli Translocation, AR (gene 367) (UniProt P10275); test: UPITT_HCI_U2OS_AR_TIF2_Nucleoli_Antagonist: University of Pittsburgh U2OS Androgen Receptor-Transcriptional Intermediary Factor 2 (AR-TIF2) Antagonism High Content Imaging Assay for Nucleoli Translocation (AID 2283997; active = hit-call score of the fitted dose curve at least 0.9, where 1 is the maximum)
How it was run: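 Compounds are added at 20 uM final concentration in 0.2% DMSO to U2OS cells carrying AR-RFP and TIF2-GFP fusions. Nucleolar AR-RFP fluorescence is then quantified by automated imaging. Antagonism is fitted positively against DHT baseline.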

[4] = target: Ratio of Nucleoli Translocation and Cytoplasm, AR (gene 367) (UniProt P10275); test: UPITT_HCI_U2OS_AR_TIF2_Nucleoli_Cytoplasm_Ratio_Antagonist: University of Pittsburgh U2OS Androgen Receptor-Transcriptional Intermediary Factor 2 (AR-TIF2) Antagonism High Content Imaging Assay for Ratio of Nucleoli Translocation and Cytoplasm (AID 2283999; active = hit-call score of the fitted dose curve at least 0.9, where 1 is the maximum;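 note: antagonists lower the DHT-driven ratio of nucleolar to cytoplasmic red signal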)
How it was run: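 High-content imaging of red fluorescence ratio, nucleoli versus cytoplasm, in U2OS expressing AR-RFP and TIF2-GFP, fitted relative to DHT. Compounds tested once at 20 uM final, then 0.195 to 50 uM final in serial dilution.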

[5] = target: Ratio of Nucleoli Translocation and Cytoplasm, AR (gene 367) (UniProt P10275); test: UPITT_HCI_U2OS_AR_TIF2_Nucleoli_Cytoplasm_Ratio_Agonist: University of Pittsburgh U2OS Androgen Receptor-Transcriptional Intermediary Factor 2 (AR-TIF2) Agonism High Content Imaging Assay for Ratio of Nucleoli Translocation and Cytoplasm (AID 2284000; active = hit-call score of the fitted dose curve at least 0.9, where 1 is the maximum;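 note: hits raise the red nucleolar to cytoplasm ratio above vehicle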)
How it was run: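 Human osteosarcoma U2OS line, AR-RFP plus TIF2-GFP; compounds 0.195–50 uM final, 0.5% DMSO. Readout: nucleolar/cytoplasmic RFP ratio by HCI, positive direction vs DMSO baseline.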

[6] = CCTE_Simmons_MITO_basal_resp_rate: CCTE's HepG2 Seahorse XF Respirometric Screening Assay at Basal Respiratory State, Simmons Lab (AID 2284001); conditions: actives raise or lower the signal
How it was run: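 Basal-phase OCR of HepG2 cells on a Seahorse XF96, analysed by bidirectional fit relative to DMSO vehicle; chemicals at 7 concentrations, 125 nM–100 uM final; three biological replicates; fenpyroximate and 2,4-dinitrophenol positive controls.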

[7] = CCTE_Simmons_MITO_max_resp_rate: CCTE's HepG2 Seahorse XF Respirometric Screening Assay at Maximal Respiratory State [uncoupled], Simmons Lab (AID 2284002); conditions: actives raise or lower the signal
How it was run: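 HepG2 oxygen consumption measured on Seahorse XF after FCCP uncoupling, following test compound injection; 7 concentrations from 125 nM to 100 uM final. Readings every 6 min over 72 min, three biological replicates; bidirectional fit versus DMSO.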

[8] = CCTE_Simmons_MITO_inhib_resp_rate: CCTE's HepG2 Seahorse XF Respirometric Screening Assay at Inhibited Respiratory State [full ETC block], Simmons Lab (AID 2284006); conditions: actives raise or lower the signal
How it was run: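 This endpoint is the respiration rate remaining after rotenone/antimycin A block, in HepG2 cells on a Seahorse XF96. Chemicals spanned 125 nM–100 uM final, in three biological replicates. OCR was read every 6 minutes for 72 minutes and compared with DMSO vehicle.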

[9] = CCTE_Simmons_MITO_viability: CellTiter-Glo Viability Assessment for CCTE's HepG2 Seahorse XF Respirometric Screening Assay [post-hoc], Simmons Lab (AID 2284007; active = hit-call score of the fitted dose curve at least 0.9, where 1 is the maximum;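 note: cells exposed to chemical for 90 min before the ATP read; actives lower ATP signal relative to DMSO baseline meaning reduced viability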)
How it was run: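 Luciferase-coupled ATP read-out after the Seahorse run: HepG2 cells treated 90 minutes with test chemical, 7-point series of 125 nM–100 uM final, in triplicate biological runs. Vehicle DMSO; dichlone as positive control over 8 concentrations.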

[10] = CCTE_Harrill_HTTr_Viability_MCF7: CCTE's 6-hour Cell Viability Assessment for the High-Throughput Transcriptomics (HTTr) Platform, in MCF-7 cells cultured in DMEM + 10% fetal bovine serum, Harrill Lab (AID 2284010)
How it was run: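 Propidium iodide exclusion, imaged by high-content analysis, gauged viability after a six-hour exposure across eight concentrations. Cells were MCF-7 grown in DMEM with 10% fetal bovine serum; fits run in both directions against DMSO.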

[11] = CCTE_Harrill_HTTr_Apoptosis_MCF7: CCTE's 6-hour Apoptosis Assessment for the High-Throughput Transcriptomics (HTTr) Platform, in MCF-7 cells cultured in DMEM + 10% fetal bovine serum, Harrill Lab (AID 2284011)
How it was run: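 MCF-7 cells in DMEM + 10% FBS exposed 6 h to chemicals over an eight-point dilution series. Caspase-3/7 activation imaged by high-content CellEvent Green staining; fitted bidirectionally versus DMSO.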

[12] = CCTE_Harrill_HTTr_CellCount_MCF7: CCTE's Cell Proliferation Assessment for the High-Throughput Transcriptomics (HTTr) Platform, Harrill Lab (AID 2284012; active = hit-call score of the fitted dose curve at least 0.9, where 1 is the maximum;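 note: cells exposed to compound for six hours; intended direction is loss of nuclei count meaning fewer cells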)
How it was run: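 Cell count from high-content imaging of Hoechst-labeled nuclei serves as viability/growth readout. Chemicals were applied to MCF-7 cells in eight concentrations for six hours, with fitting in both directions relative to DMSO.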

[13] = target: Nucleoli Translocation, AR (gene 367) (UniProt P10275); test: UPITT_HCI_U2OS_AR_TIF2_Nucleoli_Agonist: University of Pittsburgh U2OS Androgen Receptor-Transcriptional Intermediary Factor 2 (AR-TIF2) Agonism High Content Imaging Assay for Nucleoli Translocation (AID 2283998; active = hit-call score of the fitted dose curve at least 0.9, where 1 is the maximum)
How it was run: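 U2OS cells expressing RFP-tagged human AR and GFP-tagged TIF2; red fluorescence in nucleoli quantified by high-content imaging. Primary screen at 20 uM final (0.2% DMSO); concentration-response 0.195–50 uM (0.5% DMSO), fitted upward versus DMSO.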

[14] = CCTE_Shafer_MEA_acute_spike_number: CCTE's Neural Acute Assay for Total Number of Spikes, Shafer Lab (AID 2284008);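 for AC50: curve fitted for decrease in spike count so AC50 reflects inhibitors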
How it was run: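 Rat primary cortical neurons on 48-well MEA plates, DIV 13 or 15, at 37 C. 40 min baseline then 40 min with compound (0.03-40 uM); spikes detected at 8x rms noise, expressed as percent change from baseline.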

[15] = CCTE_Shafer_MEA_acute_firing_rate_mean: CCTE's Neural Acute Assay for Mean Firing Rate, Shafer Lab (AID 2284009);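 note: analyzed for loss of signal so actives lower firing rate relative to DMSO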
How it was run: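 Rat cortical neuron cultures matured to DIV 13 or 15, equilibrated 20 min at 37 C, then recorded 40 min for baseline. Compound (0.03-40 uM) added and a further 40 min recorded; percent change in mean firing rate calculated per well.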

[16] = CCTE_Shafer_MEA_acute_burst_number: CCTE's Neural Acute Assay for Single-Electrode Bursts, Shafer Lab (AID 2284013)
How it was run: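 Percent change in single-electrode burst number per well, from 40-min recordings taken before and after adding compound (0.03-40 uM) to primary rat cortical neurons on MEA plates at DIV 13 or 15, 37 C.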

[17] = CCTE_Shafer_MEA_acute_burst_duration_mean: CCTE's Neural Acute Assay for Mean Burst Duration, Shafer Lab (AID 2284014);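 note: hits are decreases in mean burst duration relative to DMSO controls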
How it was run: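 Rat cortical cultures, DIV 13/15; 40 min baseline, then 40 min with compound (0.03-40 uM), 37 C. Spikes: 300-5000 Hz band-pass, 8x rms threshold. Read-out: % change in mean single-electrode burst duration, DMSO-referenced, loss direction.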

[18] = CCTE_Shafer_MEA_acute_per_burst_spike_number_mean: CCTE's Neural Acute Assay for Average Number of Spikes Per Burst, Shafer Lab (AID 2284015);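 note: hits are decreases in mean spikes per burst versus baseline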
How it was run: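 Read-out: percent change in mean spikes per burst, each well's post-exposure 40-min recording versus its own 40-min baseline. Rat cortical cultures, DIV 13 or 15, compounds 0.03-40 uM; DMSO is negative control, loss-of-signal fitting.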

[19] = CCTE_Shafer_MEA_acute_interburst_interval_mean: CCTE's Neural Acute Assay for Mean Interburst Interval, Shafer Lab (AID 2284016);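 note: percent change of mean interburst interval versus each well's own pre-dose baseline; curves fitted for decrease in interburst interval relative to DMSO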
How it was run: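 Rat cortical cultures, DIV 13/15; 20 min equilibration, 40 min baseline, compound 0.03-40 uM, 40 min re-recording, 37 C. Spikes detected at 8x rms noise (300-5000 Hz band-pass). Endpoint: % change in interburst interval, fitted in loss direction vs DMSO.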

[20] = CCTE_Shafer_MEA_acute_burst_percentage_mean: CCTE's Neural Acute Assay for Percentage of Spikes in a Burst, Shafer Lab (AID 2284017);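 for AC50: curve fitted for loss of signal so potency reflects decreased burst percentage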
How it was run: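 Rat cortical cultures, DIV 13/15, 37 C. Spikes detected at 8x rms noise (300-5000 Hz band-pass). Burst spikes/total spikes averaged across electrodes per well; % change post- vs pre-treatment (40 min each), loss-of-signal fit vs DMSO.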

Measured: AC50

Cc1cc([N+](=O)[O-])cc([N+](=O)[O-])c1O
inactive: [1] | [2] | [3] | [4] | [5] | [8] | [10] | [11] | [12]
active: [6] 1.9 µM | [7] 86.7 µM | [9] 3.02 µM

O=[As]c1ccccc1 (configuration not stated)
active: [10] 11.1 µM | [11] 10.8 µM | [12] 7.85 µM

O=[P+](Oc1ccccc1)Oc1ccccc1
inactive: [3] | [4] | [5]

O=C1C2CC=CCC2C(=O)N1SC(Cl)(Cl)C(Cl)Cl (configuration not stated)
active: [1] 44 µM | [13] 65.6 µM | [5] 63.3 µM | [12] 50 µM
not listed: [2] | [6] | [7] | [8] | [9]
inactive: all other assays above

CC(C)OP(=S)(OC(C)C)SCCNS(=O)(=O)c1ccccc1
active: [1] 50 µM and 49.2 µM | [14] 3.37 µM | [15] 3.36 µM | [16] 3.15 µM | [20] 31.1 µM
not listed: [2] | [3] | [4] | [5] | [9] | [13]
inactive: all other assays above

O=[N+]([O-])c1ccc([N+](=O)[O-])cc1
inactive: [10] | [11] | [12]

CN(C(=O)Cc1cccc2occc12)[C@H]1CC[C@@]2(CCCO2)C[C@@H]1N1CCCC1
active: [14] 5.36 µM | [15] 5.36 µM | [16] 4.36 µM | [17] 9.88 µM | [19] 20 µM | [20] 32.5 µM
inactive: [10] | [11] | [18]

CCCCC(CC)CO[P+](=O)OCC(CC)CCCC (configuration not stated)
inactive: [10] | [11] | [12]
